Measured values taken from US20050013914A1, “Method of sustaining aroma and use thereof” (priority 2001, published 2005).

Assay: Adsorption of aromatic substances on CTS crystalline anhydrate (Example C-3)
Type: physicochemical
Details: aromatic substance adsorbed per 1 g of CTS crystalline anhydrate
Protocol: The following explains the experimental method in detail. […] The amount of the adsorbed aromatic substances was calculated by measuring the weight of the resulting powders and subtracting their starting powder weight (4 g).

1-Butanol
Amount of Adsorbed Substance: 0.22 g
